Earlier results, collected in patent US5476933A, “Azepine synthesis via a diels-alder reaction” (priority 1994, dated 1995).

System: neurons in brain ischemia
Conditions: literature; cited from earlier work

CNC1(c2ccccc2Cl)CCCCC1=O (centres unmarked) [ketamine]
neuroprotective efficacy, in words: neuroprotective efficacy both in vitro and in vivo

COc1ccc2c(c1)[C@]13CCCC[C@@H]1[C@H](C2)N(C)CC3 [dextromethorphan]
neuroprotective efficacy, in words: neuroprotective efficacy both in vitro and in vivo
